The values that follow come from PubChem BioAssay (Tox21).

Sequences of proteins named here, by UniProt entry; tags and fusion partners are left off.
UniProt O75469, whole entry: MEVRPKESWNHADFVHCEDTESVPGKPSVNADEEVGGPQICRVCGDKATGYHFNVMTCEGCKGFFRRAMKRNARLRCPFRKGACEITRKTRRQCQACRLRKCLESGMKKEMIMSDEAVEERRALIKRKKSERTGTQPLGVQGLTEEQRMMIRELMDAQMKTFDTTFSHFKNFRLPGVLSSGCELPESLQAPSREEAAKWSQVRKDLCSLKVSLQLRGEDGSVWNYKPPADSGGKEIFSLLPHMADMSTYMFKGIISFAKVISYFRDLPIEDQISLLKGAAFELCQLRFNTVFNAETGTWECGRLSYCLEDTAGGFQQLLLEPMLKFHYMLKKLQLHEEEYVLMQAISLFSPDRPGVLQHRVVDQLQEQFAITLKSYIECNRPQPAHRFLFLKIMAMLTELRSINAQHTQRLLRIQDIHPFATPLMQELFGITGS
UniProt P22303, whole entry: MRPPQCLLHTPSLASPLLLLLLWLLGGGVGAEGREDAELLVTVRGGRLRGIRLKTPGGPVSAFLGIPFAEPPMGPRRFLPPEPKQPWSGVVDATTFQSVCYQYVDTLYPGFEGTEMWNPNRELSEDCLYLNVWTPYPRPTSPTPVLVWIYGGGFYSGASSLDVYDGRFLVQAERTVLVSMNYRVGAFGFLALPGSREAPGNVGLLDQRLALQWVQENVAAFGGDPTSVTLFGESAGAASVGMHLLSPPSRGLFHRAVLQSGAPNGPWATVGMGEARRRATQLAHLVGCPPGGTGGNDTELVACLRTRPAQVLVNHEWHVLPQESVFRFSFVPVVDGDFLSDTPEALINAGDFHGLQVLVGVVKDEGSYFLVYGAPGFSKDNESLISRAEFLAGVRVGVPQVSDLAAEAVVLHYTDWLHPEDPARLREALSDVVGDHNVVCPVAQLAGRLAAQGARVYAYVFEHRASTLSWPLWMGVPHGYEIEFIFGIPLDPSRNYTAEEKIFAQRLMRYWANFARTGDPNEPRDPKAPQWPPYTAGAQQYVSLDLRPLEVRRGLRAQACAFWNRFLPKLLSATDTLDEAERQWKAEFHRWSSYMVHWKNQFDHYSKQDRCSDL
UniProt P10635, whole entry: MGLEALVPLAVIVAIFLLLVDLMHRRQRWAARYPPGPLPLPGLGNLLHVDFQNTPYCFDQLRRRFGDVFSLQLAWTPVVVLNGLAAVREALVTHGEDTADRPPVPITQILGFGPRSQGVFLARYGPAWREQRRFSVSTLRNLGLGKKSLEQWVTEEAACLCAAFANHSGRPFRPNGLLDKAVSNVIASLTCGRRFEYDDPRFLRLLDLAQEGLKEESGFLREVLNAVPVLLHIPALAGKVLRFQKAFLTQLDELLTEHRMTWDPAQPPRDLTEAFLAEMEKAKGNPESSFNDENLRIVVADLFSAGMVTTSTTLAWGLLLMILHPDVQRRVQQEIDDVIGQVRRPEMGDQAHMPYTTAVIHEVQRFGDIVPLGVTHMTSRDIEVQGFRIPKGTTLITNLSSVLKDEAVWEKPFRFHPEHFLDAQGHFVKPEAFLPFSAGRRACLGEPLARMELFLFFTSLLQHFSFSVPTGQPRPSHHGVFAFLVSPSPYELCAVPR
UniProt P33261, whole entry: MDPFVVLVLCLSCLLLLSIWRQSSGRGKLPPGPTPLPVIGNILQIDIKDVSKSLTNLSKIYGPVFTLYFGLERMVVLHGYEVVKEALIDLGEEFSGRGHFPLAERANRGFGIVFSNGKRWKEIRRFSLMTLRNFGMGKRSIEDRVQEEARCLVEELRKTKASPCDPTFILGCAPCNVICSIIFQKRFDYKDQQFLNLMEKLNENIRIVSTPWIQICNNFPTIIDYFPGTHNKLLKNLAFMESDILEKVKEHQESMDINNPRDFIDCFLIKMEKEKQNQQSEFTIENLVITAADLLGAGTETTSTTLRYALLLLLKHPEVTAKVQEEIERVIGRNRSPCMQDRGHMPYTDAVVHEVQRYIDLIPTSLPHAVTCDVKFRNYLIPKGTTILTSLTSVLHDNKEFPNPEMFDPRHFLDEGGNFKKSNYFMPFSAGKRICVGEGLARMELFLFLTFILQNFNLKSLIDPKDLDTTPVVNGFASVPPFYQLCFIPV
UniProt P11712, whole entry: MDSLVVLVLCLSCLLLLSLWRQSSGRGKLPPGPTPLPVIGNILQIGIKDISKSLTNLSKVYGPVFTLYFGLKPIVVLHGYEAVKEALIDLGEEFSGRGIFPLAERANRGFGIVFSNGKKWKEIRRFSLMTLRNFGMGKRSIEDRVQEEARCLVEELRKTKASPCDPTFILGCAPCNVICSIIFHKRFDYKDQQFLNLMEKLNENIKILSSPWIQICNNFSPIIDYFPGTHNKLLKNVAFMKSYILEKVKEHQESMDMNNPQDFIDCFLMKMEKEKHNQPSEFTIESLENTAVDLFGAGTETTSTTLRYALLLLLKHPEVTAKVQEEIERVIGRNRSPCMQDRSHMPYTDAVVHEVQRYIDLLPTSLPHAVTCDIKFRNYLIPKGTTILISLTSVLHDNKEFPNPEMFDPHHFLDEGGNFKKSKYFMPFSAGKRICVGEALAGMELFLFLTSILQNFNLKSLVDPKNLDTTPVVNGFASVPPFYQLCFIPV
UniProt P05177, whole entry: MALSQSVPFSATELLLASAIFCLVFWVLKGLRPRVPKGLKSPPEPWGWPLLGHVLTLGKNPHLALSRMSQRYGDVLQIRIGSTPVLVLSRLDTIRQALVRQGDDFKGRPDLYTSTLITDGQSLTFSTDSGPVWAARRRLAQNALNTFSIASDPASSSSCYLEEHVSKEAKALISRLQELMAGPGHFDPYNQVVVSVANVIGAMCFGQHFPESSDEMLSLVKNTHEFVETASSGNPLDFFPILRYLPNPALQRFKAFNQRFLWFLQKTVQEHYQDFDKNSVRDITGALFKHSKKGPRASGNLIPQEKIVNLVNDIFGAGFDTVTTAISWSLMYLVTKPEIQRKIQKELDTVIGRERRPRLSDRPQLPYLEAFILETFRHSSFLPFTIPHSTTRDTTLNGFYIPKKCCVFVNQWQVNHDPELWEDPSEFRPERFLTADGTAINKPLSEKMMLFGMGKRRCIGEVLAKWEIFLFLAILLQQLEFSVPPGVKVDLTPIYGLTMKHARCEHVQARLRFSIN
UniProt Q12809, whole entry: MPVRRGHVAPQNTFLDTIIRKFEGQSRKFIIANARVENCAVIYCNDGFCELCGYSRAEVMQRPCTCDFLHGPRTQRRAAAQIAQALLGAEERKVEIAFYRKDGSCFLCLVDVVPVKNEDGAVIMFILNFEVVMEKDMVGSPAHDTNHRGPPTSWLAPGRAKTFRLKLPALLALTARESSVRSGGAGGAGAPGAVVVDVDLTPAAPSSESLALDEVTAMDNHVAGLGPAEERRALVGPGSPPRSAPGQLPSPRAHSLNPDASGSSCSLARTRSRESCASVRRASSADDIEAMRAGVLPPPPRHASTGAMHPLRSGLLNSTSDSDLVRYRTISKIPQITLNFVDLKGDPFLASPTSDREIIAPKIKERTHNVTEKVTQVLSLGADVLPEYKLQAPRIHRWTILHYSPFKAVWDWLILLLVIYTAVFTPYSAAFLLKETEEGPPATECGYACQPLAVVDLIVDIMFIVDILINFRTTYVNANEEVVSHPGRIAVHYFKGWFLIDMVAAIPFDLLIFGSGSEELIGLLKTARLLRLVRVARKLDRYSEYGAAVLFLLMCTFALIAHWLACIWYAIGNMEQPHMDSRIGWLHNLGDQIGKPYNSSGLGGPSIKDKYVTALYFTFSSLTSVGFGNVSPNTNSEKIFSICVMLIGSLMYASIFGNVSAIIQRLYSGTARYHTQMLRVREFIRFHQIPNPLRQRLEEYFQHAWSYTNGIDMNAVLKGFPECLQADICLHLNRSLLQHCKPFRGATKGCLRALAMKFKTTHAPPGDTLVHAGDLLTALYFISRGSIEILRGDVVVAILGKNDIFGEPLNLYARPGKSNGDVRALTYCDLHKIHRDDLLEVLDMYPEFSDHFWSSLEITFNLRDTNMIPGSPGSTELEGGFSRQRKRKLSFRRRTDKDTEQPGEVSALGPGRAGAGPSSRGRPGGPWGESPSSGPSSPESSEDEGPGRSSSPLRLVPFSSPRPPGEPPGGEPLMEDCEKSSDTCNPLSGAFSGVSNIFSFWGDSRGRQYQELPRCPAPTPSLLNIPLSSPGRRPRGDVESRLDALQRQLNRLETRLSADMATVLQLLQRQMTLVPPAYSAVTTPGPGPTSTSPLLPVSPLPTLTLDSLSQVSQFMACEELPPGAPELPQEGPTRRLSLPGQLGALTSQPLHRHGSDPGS
UniProt P08684, whole entry: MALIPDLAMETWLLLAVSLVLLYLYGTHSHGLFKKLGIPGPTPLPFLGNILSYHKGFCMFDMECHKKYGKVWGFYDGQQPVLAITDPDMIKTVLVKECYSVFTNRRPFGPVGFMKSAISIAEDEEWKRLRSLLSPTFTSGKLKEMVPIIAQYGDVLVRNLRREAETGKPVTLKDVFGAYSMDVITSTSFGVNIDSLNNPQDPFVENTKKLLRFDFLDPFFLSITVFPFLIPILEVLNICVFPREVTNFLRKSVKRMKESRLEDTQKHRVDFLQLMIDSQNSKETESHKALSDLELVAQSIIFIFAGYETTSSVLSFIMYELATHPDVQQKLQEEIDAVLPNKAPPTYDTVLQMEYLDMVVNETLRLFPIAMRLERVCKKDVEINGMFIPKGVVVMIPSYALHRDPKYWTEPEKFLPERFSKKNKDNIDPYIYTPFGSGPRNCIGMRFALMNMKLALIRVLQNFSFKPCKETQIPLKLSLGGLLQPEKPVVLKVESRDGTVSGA

Assay [1] is described as follows: Human pregnane X receptor (PXR) small molecule agonists, qHTS cell viability counter screen (AID 1346977). Further: nearly all actives have a fitted effect of over 50% in size. The following applies: PXR-Luc HepG2 viability, CellTiter-Fluor, 24 h; at 92.4 µM (top of the series) unless noted. Summed up:
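Tox21 qHTS format; PXR-Luc HepG2, 2,000/well, charcoal-stripped FBS 5%. Cpd exposure 24hr. Read: CellTiter-Fluor fluorescence, multiplexed with luciferase.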

Assay [2] can be described thus: Caspase-3/7 induction in HepG2 cells by small molecules, qHTS assay (AID 1346978). Further: nearly all actives have a fitted effect of over 15% in size. The following applies: HepG2 caspase-3/7 activation, Caspase-Glo luminescence, 17 h; at 92.4 µM (top of the series) unless noted. Summed up:
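Wild-type HepG2 cells (2,000/well) were settled 5 h at 37 C, 5% CO2, then exposed to compounds in DMSO for 17 h. Caspase-3/7 activity was read by luminescence 30 min after adding Caspase-Glo 3/7 reagent at room temperature.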
Background: qHTS replaces the single test concentration by a dilution series.

The nature of assay [3]: Caspase-3/7 induction in CHO-K1 cells by small molecules, qHTS cell viability counter screen (AID 1346979). Further: nearly all actives have a fitted effect of over 35% in size. To be noted: CellTiter-Fluor fluorescence, 17 h; at 92.4 µM (top of the series) unless noted. Summed up:
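CellTiter-Fluor viability check, qHTS format: wild-type CHO-K1, 16hr compound treatment, 1hr reagent incubation, fluorescence read.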

Assay [4] is described as follows: Caspase-3/7 induction in CHO-K1 cells by small molecules, qHTS assay (AID 1346980). Further: nearly all actives have a fitted effect of over 15% in size. To be noted: CHO-K1 caspase-3/7 induction, Caspase-Glo luminescence, 17 h; at 92.4 µM (top of the series) unless noted. In short, it runs like this: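 Wild-type cells were seeded at 1,500 per well and settled 5 hr at 37 C, 5% CO2, then exposed to DMSO-dissolved compounds for 17 hr. Caspase-Glo 3/7 reagent was added, and luminescence was read after 30min at room temperature.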

Assay [5] is described as follows: Caspase-3/7 induction in HepG2 cells by small molecules, qHTS cell viability counter screen (AID 1346981). Further: nearly all actives have a fitted effect of over 30% in size. To be noted: CellTiter-Fluor fluorescence, 17 h; at 92.4 µM (top of the series) unless noted. In short, it runs like this:
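CellTiter-Fluor fluorescence measured viability in the same wells used for Caspase-Glo 3/7. HepG2 (wild type) at 2,000 cells/well were pre-incubated 5 hr, dosed, and given reagent at 16 hr, with 1 hr further at 37C.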

Assay [6] addresses Nuclear receptor subfamily 1 group I member 2 (Homo sapiens) (UniProt O75469). In words: Human pregnane X receptor (PXR) small molecule agonists, qHTS assay (AID 1346982). Further: nearly all actives have a fitted effect of over 35% in size. To be noted: PXR-Luc HepG2, CYP3A4 luciferase reporter, 24 h; at 92.4 µM (top of the series) unless noted. In short, it runs like this: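 Agonist mode: luminescence from ONE-Glo after 24 h compound exposure at 37C in HepG2 cells carrying hPXR-responsive CYP3A4 luciferase, plated in charcoal-stripped serum medium 5 h beforehand.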

The target of assay [7] is Acetylcholinesterase (Homo sapiens) (UniProt P22303). In words: Acetylcholinesterase (AChE) small molecule antagonists: enzyme-based qHTS assay (AID 1347397; calls by dose curve; further: nearly all actives have a fitted effect of over 55% in size). Summed up:
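Compound or DMSO vehicle was pin-transferred onto recombinant human AChE (50 mU/mL as dispensed) and left 30 min at room temperature. Acetylthiocholine with DTNB then started the reaction, read colorimetrically 10 min later.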

The target of assay [8] is Cytochrome P450 2D6 (Homo sapiens) (UniProt P10635). Nature of the assay: Cytochrome P450 Family 2 Subfamily D Member 6 (CYP2D6) small molecule antagonists: luciferase reporter qHTS assay (AID 1671196). Further: nearly all actives have a fitted effect of over 50% in size. Further: potency means the concentration at half of the fitted maximal effect. Summed up:
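CYP2D6 activity was followed as luminescence from its luciferin product after a 1 h NADPH-driven reaction at room temperature. Enzyme-substrate mix and compound were pre-incubated for 10 min, and the signal was read 20 min after adding detection reagent.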
(A reporter such as luciferase makes a cellular process visible.)

Assay [9] addresses Cytochrome P450 2C19 (Homo sapiens) (UniProt P33261). In words: Cytochrome P450 Family 2 Subfamily C Member 19 (CYP2C19) small molecule antagonists: luciferase reporter qHTS assay (AID 1671197). Further: nearly all actives have a fitted effect of over 65% in size. Further: potency means the concentration at half of the fitted maximal effect. In short, it runs like this:
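Quantitative high-throughput screen of the Tox21 library using CYP2C19 with proluciferin substrate. Reaction: NADPH regeneration, 37C, 1 h, after 10 min compound preincubation at room temperature. Readout: luminescence.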

Assay [10] concerns the target Cytochrome P450 2C9 (Homo sapiens) (UniProt P11712). In words: Cytochrome P450 Family 2 Subfamily C Member 9 (CYP2C9) small molecule antagonists: luciferase reporter qHTS assay (AID 1671198). Further: nearly all actives have a fitted effect of over 50% in size. To be noted: P450-Glo CYP2C9 enzyme assay, luciferin luminescence; at 115 µM (top of the series) unless noted. In short, it runs like this:
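CYP2C9 activity was measured with a P450-Glo proluciferin substrate. Enzyme–substrate mix was held with compound for 10 min at room temperature, then NADPH regeneration solution was added for 1 h at 37C. Luciferin product was read as luminescence.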

Assay [11] deals with Cytochrome P450 1A2 (Homo sapiens) (UniProt P05177). In words: Cytochrome P450 Family 1 Subfamily A Member 2 (CYP1A2) small molecule antagonists: luciferase reporter qHTS assay (AID 1671199). Further: nearly all actives have a fitted effect of over 50% in size. To be noted: P450-Glo CYP1A2 enzyme, luciferin luminescence, 1 h; at 115 µM (top of the series) unless noted.
Assay [12] deals with Voltage-gated inwardly rectifying potassium channel KCNH2 (Homo sapiens) (UniProt Q12809). Nature of the assay: Human Ether-a-go-go-Related Gene (hERG) channel small molecule antagonists: fluorescence cell-based qHTS assay (AID 1671200). The following applies: hERG-U2OS cells, FluxOR thallium flux fluorescence; at 76.8 µM (top of the series) unless noted. Summed up:
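Kinetic two-minute fluorescence traces, sampled at 1 s, were collected following thallium stimulus of U2OS cells (1000 per well) that had been cultured overnight at 37 C and loaded with FluxOR II.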
Background: The hERG channel carries a current that helps repolarise heart muscle cells.

In assay [13] the target is Cytochrome P450 3A4 (Homo sapiens) (UniProt P08684). Nature of the assay: Cytochrome P450 Family 3 Subfamily A Member 4 (CYP3A4) small molecule antagonists: luciferase reporter qHTS assay (AID 1671201). Further: nearly all actives have a fitted effect of over 50% in size. The following applies: P450-Glo CYP3A4 enzyme, luciferin luminescence, 1 h; at 115 µM (top of the series) unless noted. Summed up: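 Proluciferin-to-luciferin conversion by CYP3A4, NADPH-regenerated, 1 h RT; luminescence read as RLU. Ketoconazole as control.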

Setting [14] is: at 115 µM (top of the series) unless noted.

Values joined by “and” are separate entries in the source; they are usually repeats but may differ in a detail not shown here. Equal entries are not always repeated. Only a part is listed here, and it is no random draw. Results filed as inconclusive are left out. Some compounds were tested as several samples or in several runs, with calls that do not always agree. Active and inactive are the calls of the source. Unless noted, the call rests on the fitted dose curve; in most records, active means well fitted curve in the direction sought with a large enough effect in the repeat runs; inconclusive means weak or mixed curves; inactive means no such curve, though single readings can be large; an effect the other way counts as inactive or inconclusive.
On the % scale 0 is the no-effect control and ±100 the full control effect.

As for `ClCCNCCCl`, the activity change, negative = cytotoxicity in assay [1] was inactive: -1.34%; in assay [3], inactive: 0.575%; in assay [5] it was inactive: 0.52%. In addition, in [2], the caspase activation was inactive: -0.715%. Further, in assay [4], the caspase-3/7 activation is inactive: 0.489%. The activation in assay [6] is inactive: 0.116%. In addition, the activity change, negative = inhibition is inactive: 1.89% in [7] (setting [14]); inactive: -7.56% in [10]; inactive: -2.22% in assay [11]; inactive: -1.82% in [12]; inactive: -0.233% in [13]. The Potency entry in assay [8] and in [9] was “inactive” each time.

On to `CCC(=O)N(c1ccccc1)C1CCNCC1`, for which the activity change, negative = cytotoxicity was inactive: 6.04% [at 42.5 µM] in [1], inactive: -3.53% [at 42.5 µM] in assay [3] and inactive: 3.05% [at 42.5 µM] in [5]. For the same compound, the caspase activation in [2] was inactive: 0.606% [at 42.5 µM]. In addition, the caspase-3/7 activation in [4] was inactive: -1.92% [at 42.5 µM]. The activation in assay [6] is inactive: -7.5% [at 42.5 µM]. Moreover, the activity change, negative = inhibition in [7] (setting [14]) was inactive: -1.35% [at 53 µM]; in assay [10], inactive: -18.3% [at 53 µM]; in [11], inactive: -18.7% [at 53 µM]; in [12] it was inactive: 1.55% [at 35.3 µM]; in [13], inactive: -13.4% [at 52.9 µM]. Further, in assay [8], the Potency was active: 4.9 µM. The Potency entry in assay [9] was “inactive”.

As to `CCOC(=O)N1CCC(=O)CC1`, the activity change, negative = cytotoxicity is inactive: 8.78% [at 42.5 µM] in [1], inactive: 4.24% [at 42.5 µM] in assay [3] and inactive: 5.37% [at 42.5 µM] in assay [5]. Besides, the caspase activation in assay [2] is inactive: 0.255% [at 42.5 µM]. In assay [4], the caspase-3/7 activation is inactive: 0.155% [at 42.5 µM]. For the same compound, the activation in assay [6] was inactive: -7.76% [at 42.5 µM]. For the same compound, the activity change, negative = inhibition in [7] (setting [14]) was inactive: 0.47% [at 53 µM]; in [10], inactive: -2.12% [at 53 µM]; in [11], inactive: 10.1% [at 53 µM]; in assay [12], inactive: -0.226% [at 35.3 µM]; in assay [13], inactive: 6.47% [at 52.9 µM]. Also, the Potency entry in assay [8] and in assay [9] was “inactive” throughout.

Take `O=[N+]([O-])c1cccc([N+](=O)[O-])c1`: in assay [7] (setting [14]), the activity change, negative = inhibition was inactive: 1.06%.

Take `[NH4+].[O-][Cl+3]([O-])([O-])[O-]`: the activity change, negative = inhibition in assay [7] (setting [14]) was inactive: -0.557% and inactive: -0.835%.

As for `CCOP(=O)(CC)OCC`, in assay [7] (setting [14]), the activity change, negative = inhibition was inactive: -0.136%.

For `Cc1c([N+](=O)[O-])cccc1[N+](=O)[O-]`, the activity change, negative = inhibition in assay [7] (setting [14]) was inactive: 1.97% and inactive: -1.84%.

As to `OCCSCCO`, the activity change, negative = inhibition in assay [7] (at 53 µM (top of the series)) was inactive: 0.408%; in assay [7] (at 115 µM (top of the series)), inactive: 0.0019%.

Turning to `Cc1cccc([N+](=O)[O-])c1[N+](=O)[O-]`, in assay [7] (setting [14]), the activity change, negative = inhibition is inactive: 1.77% [at 53 µM].

As for `ClCCOP(OCCCl)OCCCl`, the activity change, negative = cytotoxicity was inactive: 3.23% and inactive: 0.456% in assay [1]; inactive: 0.0358% and inactive: -0.853% in [3]; inactive: -0.102% and inactive: -0.546% in assay [5]. Further, the caspase activation in [2] was inactive: 0.457% and inactive: -0.0328%. Further, in assay [4], the caspase-3/7 activation was inactive: 1.32% and inactive: -1.29%. For the same compound, the activation in assay [6] was inactive: 5.82% and inactive: 12.3%. In addition, the activity change, negative = inhibition in assay [7] (setting [14]) was inactive: 2.88% and inactive: -1.79%; in assay [10], inactive: -19.9%; in assay [11], inactive: -9.36%; in assay [12] it was inactive: -1.2% and inactive: -8.85%; in assay [13], inactive: 2.45% and inactive: 2.05%. Moreover, the Potency result in [8] was “inactive”. Also, in [9], the Potency was active: 71.5 µM and inactive.
